# According to PMC7959846, “Block of Voltage-Gated Sodium Channels by Atomoxetine in a State- and Use-dependent Manner” (Frontiers in Pharmacology, 2021):
# Columns and labels:
# [1] = molecular target: T1, hNav1.5_I408W_L409C_A410W (WCW mutant) (Homo sapiens, UniProt Q14524, A410W/I408W/L409C); assay: Interaction with the open state, inactivation-deficient WCW mutant; format: cell-based
# T1 construct: expressed in transfected cells; host or cells: tsA201 (HEK-293 derivative)
# [2] = molecular target: hNav1.5_I408W_L409C_A410W_F1760K (F1760K_WCW mutant) (Homo sapiens, UniProt Q14524, A410W/F1760K/I408W/L409C); assay: Binding site: late current of the F1760K mutant in the WCW background; format: cell-based
smiles,measurement,setting,value
CNCC[C@@H](Oc1ccccc1C)c1ccccc1 [atomoxetine],hill coefficient (late current),[1],0.99 ± 0.17
same,time required to achieve a steady state condition,[1]; 3 µM atomoxetine,less than 10 ms
same,effect on peak current (drug binding to the resting state),[1]; atomoxetine up to 10 µM,hardly affected
same,IC50,"[1]; half maximal inhibition of the late current (IC50), test pulse 50 ms, −20 mV, preincubation 30 s, N = 5",3.06 ± 0.4 µM
same,hill coefficient (late current),[2],0.88
same,IC50,"[2]; N = 5, read-out: half maximal effect on the late current (IC50)",182 ± 11.9 µM
